What was measured:
GLUT1 = GLUT1 (Homo sapiens, UniProt P11166); assay: D-[[…]-3H] glucose uptake in GLUT1-overexpressing CHO cells (CHO-G1)
GLUT3 = GLUT3 (Homo sapiens, UniProt P11169); assay: counterflow transport assay (protein concentration […])

Amino acid sequences for entries named in this document (tags omitted).
UniProt P11169, whole entry: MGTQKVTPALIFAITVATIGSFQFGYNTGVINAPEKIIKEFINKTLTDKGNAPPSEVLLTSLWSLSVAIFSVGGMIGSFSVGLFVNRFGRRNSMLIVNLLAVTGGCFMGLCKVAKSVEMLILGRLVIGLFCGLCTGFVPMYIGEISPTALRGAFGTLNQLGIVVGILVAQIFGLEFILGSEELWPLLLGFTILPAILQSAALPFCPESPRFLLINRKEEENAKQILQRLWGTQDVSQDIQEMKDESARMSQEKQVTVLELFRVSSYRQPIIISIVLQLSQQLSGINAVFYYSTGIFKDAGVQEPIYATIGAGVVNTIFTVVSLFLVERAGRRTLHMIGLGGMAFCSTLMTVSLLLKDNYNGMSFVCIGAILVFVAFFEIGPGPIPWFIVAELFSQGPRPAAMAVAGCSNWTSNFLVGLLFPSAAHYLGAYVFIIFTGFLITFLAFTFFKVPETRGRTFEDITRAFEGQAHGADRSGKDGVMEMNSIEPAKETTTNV

COc1ccc(CCC(=O)O[C@@H](CN2C(=O)c3ccccc3C2=O)CN2C(=O)NC(C)(c3ccc4c(c3)OCO4)C2=O)cc1OC (some centres unmarked)
IC50 (GLUT1): 1430 nM

COc1ccc(CC(=O)OC(CN2C(=O)c3ccccc3C2=O)CN2C(=O)NC(C)(c3ccc4c(c3)OCO4)C2=O)cc1OC (single isomer, unassigned)
IC50 (GLUT3): 1660 nM
